## AlphaSeq binding of Ab-14 light chain variants to a spike HR2 peptide

The measurements come from Li et al. 2023 (doi:10.1038/s41467-023-39022-2) through the FLAb antibody collection.

All variants were tested on one target, the spike HR2 peptide PDVDLGDISGINAS (SARS-CoV-2).

Parent scFv Ab-14: VH joined to VL by the linker GGGGSGGGGSGGGGS. Changes lie in the light chain CDRs alone.
VH: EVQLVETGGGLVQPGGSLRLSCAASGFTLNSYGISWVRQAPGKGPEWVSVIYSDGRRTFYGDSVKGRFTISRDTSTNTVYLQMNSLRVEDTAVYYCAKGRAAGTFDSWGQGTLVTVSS
VL: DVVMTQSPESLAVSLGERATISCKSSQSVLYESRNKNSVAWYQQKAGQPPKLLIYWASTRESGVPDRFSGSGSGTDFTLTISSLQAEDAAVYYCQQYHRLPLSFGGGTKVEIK

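The parent was found by panning a naive human phage display library on the peptide. Designed CDR sequences, proposed from the first random library and measured here. Group labels follow the data file (En: ensemble of fine-tuned language models; GP: Gaussian process model; HC: hill climbing; Gen: genetic algorithm; Gibbs: Gibbs sampling; a sequence that several methods proposed may carry one label only). The scFvs were displayed on barcoded MATa yeast, the peptide on MATalpha yeast. The frequency of each diploid, read from paired DNA barcodes, reflects how well the two displayed proteins bind. Each replicate has its own calibration line, from reference interactions of the BCL2 family. Each pool was mated in six replicate cultures.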

Variants are written as CDR1, CDR2 and CDR3 of the light chain (limits as in the source). Parent: KSSQSVLYESRNKNSVA, WASTRES, QQYHRLPLS. This list holds designs with more than six substitutions. Each Kd is an estimate from the mating assay, the geometric mean of the replicates in which the pair was seen; lower is stronger. "no signal" marks a missing value. The strain was present, yet no cells mated with the target were sequenced in any replicate, which points to weak or no binding. The authors averaged sequences with at least three values out of six and counted those with two or fewer as poor binders. Empty control strains, which show no peptide, gave a signal in 4% of pairings with all light chain designs; the median was 430 nM and 95% of these signals were weaker than 38 nM. No background was subtracted. The range of this assay differs from that of the first round, and the authors advise against merging the two. Of ten entries with the parent sequence, four were seen in most replicates (averages 2.2 nM to 240 nM), three in one and three in none, so single entries are noisy.

CDR-L1	CDR-L2	CDR-L3	group	Kd (apparent)	seen in
KLYQSMGYLSRMKNSIA	DMSRRES	QQYHRLPLS	En_HC	2.5 nM	6/6
SITQLVAYGQRNKNSVA	QMSTREN	QQYDRLPLS	En_HC	410 nM	3/6
KITATMRFEQSKSNNIA	EVTQRSK	QQYYRLPLA	En_Gen	1.7 nM	6/6
KLVESVLYESRNSNAVA	NASYREE	QQYHRLPLS	GP_Gibbs	4.1 nM	6/6
MFSQVMEYGSRYKNSVA	QASTRED	QQYHWLPLS	En_HC	8.2 nM	6/6
KITATMRFEQKASNNIA	EVTTRSK	QQYYRLPLA	En_Gen	13 nM	6/6
QLEQDQFPMGKGWHSIA	NATTLVA	QQYYYLPLS	En_Gibbs	3.0 nM	6/6
KLSQSYLMGDRNKNSVA	QASTREM	QQYHRLPLS	GP_Gibbs	670 pM	6/6
KLSSVIGTEKVHGNNVA	EMATRER	QQYNRLPLS	En_Gen	890 pM	6/6
KIDGQRSYQGGRERAIA	DVTIRFR	QQYARLPLV	En_Gibbs	no signal	0/6
MVYQAAMMGGVARNSIA	NATMRPD	QQYHRLPLE	En_Gen	11 nM	6/6
KSSQIVLGMDGMKNSVA	QASQRES	QQYHRLPLS	GP_Gibbs	680 pM	6/6
KLTMITGLEKVSTNNVA	EMETREK	QQYNRLPLS	En_Gen	3.9 nM	6/6
KLSMVTGHMSVSKNNVA	EMETRMN	QQYDRLPLS	En_Gen	1.3 nM	6/6
KLSGLMASSKFAKNSVA	ENNTRED	QQYERLPLS	En_Gen	380 nM	5/6
RLTEHESEKKAADASVA	DANTRGD	QQYHRLPLF	En_Gibbs	3.2 nM	6/6
ILSQMLLTAGNKRNSVA	QANYRES	QQYHRLPLS	En_HC	62 nM	5/6
HSNGNLRMDERNKNHVA	DTDVRES	QQYMRLPLV	En_Gibbs	3.6 nM	6/6
KLMNSMLYESRNVNSVA	HASRRES	QQYHRLPLS	GP_Gibbs	1.9 nM	6/6
TISGIMDQMSHSKNNVA	EVSMRFD	QQYVRLPLE	En_Gen	8.0 nM	6/6
STTSHEEESEGAHASVA	EASMLES	QQYHRLPLM	En_Gibbs	39 nM	6/6
TLQQSWEYESRNKNSVA	NASQRED	QQYHRLPLS	GP_Gibbs	1.3 nM	6/6
KLSNSVWMESRNKNQVA	EASKRES	QQYHRLPLS	GP_Gibbs	970 pM	6/6
KLSWDCTTDLNRMSSIA	ESEVAND	QQYAHLPLT	En_Gibbs	17 nM	6/6
ALGDVTRMESNKKNSIA	DMSNREA	QQYHRLPLS	En_HC	1.1 nM	6/6
NVGQLMDGETRNRNNVA	HQSTRED	QHYHRLPLS	En_HC	18 nM	5/6
QVQYHPGESLRHASSIA	DVNIKEM	QQYSRLPLS	En_Gibbs	6.4 nM	6/6
HFAQTRQEDIQNKNSVA	EGSVVIS	QQYSKLPLS	En_Gibbs	55 nM	6/6
KIQWYPLEIRGTISAVA	EAATRYN	QQYMRLPLM	En_Gibbs	180 nM	5/6
KLSDNQEGQYNKGQSVA	EASEVCI	QQFYRLPLV	En_Gibbs	74 nM	4/6
MISEMMHMIGARKNSIA	DLVLRAN	QQYHRLPLS	En_Gen	20 nM	4/6
MFSQGVMVGWLTRNSVA	NSETREK	QQYDRLPLS	En_HC	340 nM	2/6
KIGMTLNMMMHKKNNVA	DLVTREK	QQYHRLPLS	En_Gen	6.2 nM	6/6
KLSNWQFDSYGAKESVA	ENEAVSN	QQYSLLPLS	En_Gibbs	33 nM	2/6
KLPQKWNYESRNKNNVA	SASCRES	QQYHRLPLS	GP_Gibbs	1.5 nM	6/6
QVRDEQWAEGMNIQSIA	EGEVSKD	QQYNRLPLS	En_Gibbs	2.8 nM	2/6
KIQDNLGTLMQQINSVA	STEEKSD	QSYMRLPLI	En_Gibbs	26 nM	6/6
TIPTLMGHVSKHTNNVA	DMDTRGD	QQYNRLPLS	En_Gen	1.2 nM	6/6
MISQLYNMGQFAINSVA	QASVRNA	QQYDRLPLI	En_Gen	13 nM	6/6
KIGATLNLLYEKKNNVA	DLVEREN	QQYHRLPLS	En_Gen	1.3 nM	6/6
KFDLLMNDEKSANKNVA	GNVHHMA	QQYERLPLS	En_Gibbs	5.0 nM	6/6
KLSSSHLYGDRMKNSVA	QASQRES	QQYHRLPLS	GP_Gibbs	1.9 nM	6/6
KFSYGNLYEDRNQNSVA	NASQRLQ	QQYHRLPLS	GP_Gibbs	2.2 nM	6/6
TLTQVQGMESHNKDNVA	DLSTRGS	QQYDRLPLS	En_HC	2.3 nM	6/6
NVDISQNTNYNHKANVA	GHDERVG	QQYSRLPLS	En_Gibbs	860 pM	6/6
KLGQMTAIESRALNSVA	QMDTRES	QQYHRLPLS	En_HC	20 nM	2/6
KLSGLMSSSKFAKDNVA	ENNTREK	QQYERLPLS	En_Gen	9.5 nM	6/6
KIQMFLGTLMEQINSIA	NSEEIVQ	QSYFRLPLS	En_Gibbs	33 nM	5/6
NMEGVEFEMAMHGNSVA	GVDLREA	QQYFRLPLH	En_Gibbs	13 nM	6/6
KVSMLHDYESRAKNSVA	QASTRES	QDYHRLPLS	GP_Gibbs	2.2 nM	6/6
KAQQSNEYESRNKNSVA	NASQRED	QQYHRLPLS	GP_Gibbs	1.6 nM	6/6
KISQMYRYEQQNSSSIA	EASTRLN	QSYHRLPLS	En_HC	59 nM	6/6
KLQTSWLYEKRNKNSVA	QASQRES	QQYHRLPLS	GP_Gibbs	2.1 nM	6/6
KLGGVTEYEMRNKNSVA	QMTTREK	QQYHRLPLS	En_HC	770 pM	6/6